Sequences of proteins named here, by UniProt entry; tags and fusion partners are left off. Residues count along the entry.
UniProt O42275, 24-633 limits assumed: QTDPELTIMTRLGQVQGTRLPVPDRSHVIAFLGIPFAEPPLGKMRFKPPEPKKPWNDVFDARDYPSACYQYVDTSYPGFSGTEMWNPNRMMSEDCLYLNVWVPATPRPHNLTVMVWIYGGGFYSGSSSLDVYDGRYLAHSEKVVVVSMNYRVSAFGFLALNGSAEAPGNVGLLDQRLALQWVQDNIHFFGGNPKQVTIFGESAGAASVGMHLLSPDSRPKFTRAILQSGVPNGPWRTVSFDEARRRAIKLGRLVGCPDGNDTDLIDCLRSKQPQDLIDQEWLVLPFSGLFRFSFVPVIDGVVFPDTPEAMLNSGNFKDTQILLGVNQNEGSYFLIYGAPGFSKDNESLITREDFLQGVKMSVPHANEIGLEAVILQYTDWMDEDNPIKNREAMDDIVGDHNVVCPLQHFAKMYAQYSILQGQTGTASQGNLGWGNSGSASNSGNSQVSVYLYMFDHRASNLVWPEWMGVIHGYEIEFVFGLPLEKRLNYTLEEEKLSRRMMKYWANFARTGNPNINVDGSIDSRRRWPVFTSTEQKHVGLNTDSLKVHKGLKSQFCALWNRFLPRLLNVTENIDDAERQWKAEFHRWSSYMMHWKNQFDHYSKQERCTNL
UniProt P81908, whole entry, looked up: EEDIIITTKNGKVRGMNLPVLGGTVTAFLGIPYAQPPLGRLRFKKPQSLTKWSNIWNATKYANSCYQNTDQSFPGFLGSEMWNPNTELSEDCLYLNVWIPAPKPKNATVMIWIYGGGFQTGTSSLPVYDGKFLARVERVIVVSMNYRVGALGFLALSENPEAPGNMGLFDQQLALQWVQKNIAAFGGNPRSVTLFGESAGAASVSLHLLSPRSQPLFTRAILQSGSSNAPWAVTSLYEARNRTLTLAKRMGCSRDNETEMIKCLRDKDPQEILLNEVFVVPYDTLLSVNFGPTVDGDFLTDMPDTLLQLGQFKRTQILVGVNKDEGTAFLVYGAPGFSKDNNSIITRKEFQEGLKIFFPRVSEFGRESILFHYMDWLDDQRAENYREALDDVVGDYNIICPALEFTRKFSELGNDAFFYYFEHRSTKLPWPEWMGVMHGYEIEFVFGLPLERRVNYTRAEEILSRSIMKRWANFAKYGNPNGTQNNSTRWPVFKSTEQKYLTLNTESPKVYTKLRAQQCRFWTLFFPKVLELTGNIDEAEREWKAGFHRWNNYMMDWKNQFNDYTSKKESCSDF

In paper PMC12537693, “3-Hydroxytyrosol as a phenolic cholinesterase inhibitor with antiamnesic activity: a multimethodological study of selected plant phenolics” (Frontiers in Pharmacology, 2025):

What was measured:
[1] = molecular target: electric eel AChE (Electrophorus electricus, UniProt O42275); assay: Microtiter assay for AChE inhibition (Ellman's method); format: biochemical; settings: for IC50: read-out: IC50, AChE, ± SD
[2] = molecular target: horse serum BChE (Equus caballus, UniProt P81908); assay: Microtiter assay for BChE inhibition (Ellman's method); format: biochemical; settings: n = 3; for IC50: read-out: IC50, BChE, ± SD
[3] = tested on: scopolamine-induced amnesic mice; assay: Passive avoidance test in scopolamine-induced amnesic mice; format: in vivo; settings: for Mean latency time (min) ± SEM (1st day): acquisition day, before treatment
[4] = tested on: AChE; settings: read-out: Ki, AChE; ref Gulcin et al., 2016; cited from earlier work
[5] = tested on: BChE; settings: rosmarinic acid isolated from Perovskia atriplicifolia Benth.; ref Senol et al., 2017; cited from earlier work
[6] = tested on: BChE; settings: read-out: Ki, BChE; ref Gulcin et al., 2016; cited from earlier work
[7] = tested on: BChE; settings: read-out: IC50, ChE (second value, taken as BChE); order of enzymes not stated; ref Okello and Mather, 2020; cited from earlier work
[8] = tested on: AChE; settings: read-out: IC50, ChE (first value, taken as AChE); order of enzymes not stated; ref Okello and Mather, 2020; cited from earlier work
[9] = 20 mg/kg i.p., scopolamine 1 mg/kg i.p. 30 min later, 24 h after scopolamine, cutoff 9 min
[10] = group given 20 mg/kg i.p., n = 8

Row | Compound | Enzyme inhibition (% ± SD) at 10 mM, AChE ([1]; n = 3) | Enzyme inhibition (% ± SD) at 10 mM, BChE [2] | IC50 ([1]; n = 3) | further results
1 | O=c1oc2c(O)c(O)cc3c(=O)oc4c(O)c(O)cc1c4c23 [Ellagic acid] | — (No inhibition) |  |  | Enzyme inhibition (% ± SD) at 10 mM, AChE ([1]; n = 3, listed as ellagic acid): no inhibition
2 | COc1cc(-c2cc(=O)c3c(O)cc(O)cc3o2)cc(OC)c1O | — (No inhibition) | 10.48 ± 4.13% |  | 
3 | 3-Hydroxytyrosol | 62.40 ± 0.68% | 94.35 ± 2.40% | 4.56 mM | IC50 [2]: 6.96 mM; Mean latency time (min) ± SEM (2nd day) [3, 9]: 8.39 ± 0.31 min; Mean latency time (min) ± SEM (1st day) [3, 10]: 0.44 ± 0.03 min
4 | Trans-ferulic acid | 6.26 ± 2.55% | 14.91 ± 11.10% |  | 
5 | COc1ccc(-c2cc(=O)c3c(O)cc(O)cc3o2)cc1O | — (No inhibition) | 18.94 ± 2.07% |  | 
6 | O=c1cc(-c2ccc(O)cc2)oc2cc(O)cc(O)c12 [Apigenin] | 76.97 ± 1.50% |  | 3.52 mM | 
7 | O=c1c(O)c(-c2ccc(O)cc2)oc2cc(O)cc(O)c12 [Kaempferol] | 30.91 ± 1.83% |  |  | 
8 | O=C(/C=C/c1ccc(O)c(O)c1)O[C@H](Cc1ccc(O)c(O)c1)C(=O)O | 69.99 ± 1.84% | 68.91 ± 4.51% | 3.08 mM | Ki [4]: 0.0425 nM; IC50 [2]: 6.14 mM; IC50, BChE [5]: 6.59 ± 0.37 µg/mL (≈ 18.3 µM); Mean latency time (min) ± SEM (2nd day) [3, 9]: 6.02 ± 1.16 min; Mean latency time (min) ± SEM (1st day) [3, 10]: 0.48 ± 0.11 min; Ki [6]: 0.122 nM
9 | Catechin | — (No inhibition) | — (No inhibition) |  | 
10 | O=C(O)c1cc(O)c(O)c(O)c1 [Gallic acid] |  |  | 4.22 mM | IC50 [2]: 3.29 mM
11 | Oc1ccc(/C=C/c2cc(O)cc(O)c2)cc1 | 54.02 ± 3.59% |  | 5.19 mM | IC50 [2]: 9.87 mM
12 | COc1ccc2c3c1O[C@H]1C[C@@H](O)C=C[C@@]31CCN(C)C2 |  |  |  | Mean latency time (min) ± SEM (2nd day) ([3]; 10 mg/kg s.c., scopolamine 1 mg/kg i.p. 30 min later, 24 h after scopolamine, cutoff 9 min): 6.42 ± 1.06 min; Mean latency time (min) ± SEM (1st day) ([3]; group given 10 mg/kg s.c., n = 8): 0.35 ± 0.08 min
13 | D-(-)-quinic acid | 5.44 ± 4.01% | 5.84 ± 4.60% |  | 
14 | p-Tyrosol | — (No inhibition) | 35.58 ± 3.54% |  | 
15 | Epigallocatechin gallate | 69.11 ± 3.91% | 84.43 ± 0.86% | 4.85 mM | IC50 [7]: 0.0251 mM; IC50 [2]: 5.04 mM; IC50 [8]: 0.0148 mM; Mean latency time (min) ± SEM (2nd day) [3, 9]: 4.01 ± 0.77 ^c min; Mean latency time (min) ± SEM (1st day) [3, 10]: 0.38 ± 0.04 min
16 | CN1[C@@H]2C[C@@H](OC(=O)[C@H](CO)c3ccccc3)C[C@H]1[C@@H]1O[C@@H]12 |  |  |  | Mean latency time (min) ± SEM (1st day) ([3]; control group given scopolamine 1 mg/kg only): 0.38 ± 0.04 min; Mean latency time (min) ± SEM (2nd day) ([3]; control: scopolamine 1 mg/kg i.p. alone, 24 h after): 0.91 ± 0.14 min
17 | O=C(/C=C/c1ccc(O)c(O)c1)O[C@@H]1C[C@](O)(C(=O)O)C[C@@H](O)[C@H]1O [Chlorogenic acid] | 18.67 ± 1.76% |  |  | 
18 | COc1ccc(-c2cc(=O)c3c(OC)c(OC)c(OC)c(OC)c3o2)cc1 | — (No inhibition) | 9.97 ± 4.09% |  | 
19 | COc1ccc([C@@H]2CC(=O)c3c(O)cc(O)cc3O2)cc1O | 19.19 ± 2.75% | 25.58 ± 3.92% |  | 

Converted amounts (≈) assume the structure as drawn. Marks after values point to notes of the source that are not given here.
